One assay addresses GST-VEGFR2 (Homo sapiens, UniProt P35968). In words: VEGF-R2 enzyme assay (VEGF-E), LANCE method. The note with it: GST-VEGFR2, 75 uM ATP, biotinylated peptide; tested form: HCl. An excerpt:
VEGF-R2 Enzyme Assay (VEGF-E)
The VEGF enzyme assay used the LANCE method (Wallac) and GST-VEGFR2, baculovirus expressed recombinant constructs of the intracellular domains of human TIE2 tagged by GST. The method measured the ability of the purified enzymes to catalyse the transfer of the γ-phosphate from ATP onto tyrosine residues in a biotinylated synthetic peptide, (biotin-aminohexyl-EEEEYFELVAKKKK-NH2). This peptide phosphorylation was detected using the following procedure: GST-VEGFR2 was incubated for 40-60 mins at room temperature with 75 uM ATP, 5 mM MgCl2, 0.1 mM DTT, 0.1 mg/mL BSA and the test compound (diluted from a 10 mM stock in DMSO for desired concentration) in 100 mM HEPES buffer. The reaction was stopped by the addition of EDTA (final concentration 50 mM). Streptavidin linked-APC (allophycocyanin, Molecular Probe) and Europium-labeled anti-phosphorylated tyrosine antibody (Wallac) were then added at the final concentration of 15 nM and 1 nM, respectively. The APC signal was measured using an ARVO multilabel counter (Wallac Berthold, Japan). The percent inhibition of activity was calculated relative to blank control wells. The concentration of test compound that inhibits 50% of activity (IC50) was interpolated using nonlinear regression (Levernberg-Marquardt) and the equation, y=Vmax (1−x/(K+x))+Y2, where “K” was equal to the IC50. […]
(In general: Time-resolved FRET reads energy transfer from a long-lived donor to a nearby acceptor.)

Chains of the proteins cited; added tags and fusions are not shown. Residues count along the entry.
UniProt P35968, 786-1356 limits assumed: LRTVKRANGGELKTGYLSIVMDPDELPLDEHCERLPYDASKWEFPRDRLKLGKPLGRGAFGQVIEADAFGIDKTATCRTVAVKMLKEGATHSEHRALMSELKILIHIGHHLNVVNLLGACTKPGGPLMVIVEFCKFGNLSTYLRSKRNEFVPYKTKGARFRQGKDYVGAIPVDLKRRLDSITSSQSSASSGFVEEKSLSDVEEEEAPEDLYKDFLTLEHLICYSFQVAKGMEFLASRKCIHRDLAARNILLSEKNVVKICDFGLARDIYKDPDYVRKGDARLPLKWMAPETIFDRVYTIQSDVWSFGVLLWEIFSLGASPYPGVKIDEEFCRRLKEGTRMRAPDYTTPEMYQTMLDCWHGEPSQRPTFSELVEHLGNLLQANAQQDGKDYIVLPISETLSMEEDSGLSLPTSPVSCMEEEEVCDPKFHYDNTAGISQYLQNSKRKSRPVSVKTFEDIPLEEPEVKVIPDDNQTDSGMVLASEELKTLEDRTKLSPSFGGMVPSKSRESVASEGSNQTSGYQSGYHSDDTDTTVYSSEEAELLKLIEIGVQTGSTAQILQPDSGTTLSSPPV
UniProt Q02763, 23-1124 limits assumed: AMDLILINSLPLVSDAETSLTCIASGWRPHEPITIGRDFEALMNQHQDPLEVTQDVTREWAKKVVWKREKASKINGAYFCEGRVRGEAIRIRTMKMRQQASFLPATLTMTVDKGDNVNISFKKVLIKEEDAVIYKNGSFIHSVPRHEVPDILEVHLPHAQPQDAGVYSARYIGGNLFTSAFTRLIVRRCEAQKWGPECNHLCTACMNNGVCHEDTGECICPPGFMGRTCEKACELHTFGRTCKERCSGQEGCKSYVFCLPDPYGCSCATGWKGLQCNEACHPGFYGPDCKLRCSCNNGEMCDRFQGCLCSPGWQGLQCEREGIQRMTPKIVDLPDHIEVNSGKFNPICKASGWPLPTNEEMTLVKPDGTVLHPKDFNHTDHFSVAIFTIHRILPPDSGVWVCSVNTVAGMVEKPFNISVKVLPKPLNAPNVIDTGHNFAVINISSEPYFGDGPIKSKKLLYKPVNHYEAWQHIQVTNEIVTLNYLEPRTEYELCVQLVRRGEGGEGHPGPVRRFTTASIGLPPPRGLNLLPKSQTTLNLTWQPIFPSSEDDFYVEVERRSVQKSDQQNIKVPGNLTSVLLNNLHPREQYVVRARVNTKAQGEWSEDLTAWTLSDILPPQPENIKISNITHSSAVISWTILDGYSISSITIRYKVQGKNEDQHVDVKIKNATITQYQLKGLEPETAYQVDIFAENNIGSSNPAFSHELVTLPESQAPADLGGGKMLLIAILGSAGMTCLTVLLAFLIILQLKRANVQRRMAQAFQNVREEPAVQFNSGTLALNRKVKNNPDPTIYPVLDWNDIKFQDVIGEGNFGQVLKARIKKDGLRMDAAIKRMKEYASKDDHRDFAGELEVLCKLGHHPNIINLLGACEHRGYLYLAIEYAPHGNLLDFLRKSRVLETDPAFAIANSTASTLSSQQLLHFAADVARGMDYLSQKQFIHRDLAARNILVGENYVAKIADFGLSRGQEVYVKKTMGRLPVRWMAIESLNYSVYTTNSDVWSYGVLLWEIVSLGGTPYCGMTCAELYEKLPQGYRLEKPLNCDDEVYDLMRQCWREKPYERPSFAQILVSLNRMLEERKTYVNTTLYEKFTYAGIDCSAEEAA

The target of another assay is Recombinant GST-Tie2 (Homo sapiens, UniProt Q02763). In words: Tie2 fluorescence polarization kinase activity assay (TIE2-FP). As to conditions: activated Tie2, 200 μM ATP, peptide substrate; tested form: HCl. On the procedure:
Tie2 Fluorescence Polarization Kinase Activity Assay: (TIE2-FP)
Activation of Recombinant Tie2 Activation:
Recombinant GST-Tie2 was activated by incubating the enzyme in 20 mM Tris-HCl, pH 7.5, 12 mM MgCl2, 100 mM NaCl, 20 μM sodium vanidate, 1 mM DTT and 300 μM ATP at room temperature for 2 hours. The activation mixture was then passed through a NAP-25 desalting column (Pharmacia Biotech cat. no. 17-0852-02) to remove the free ATP. The activated enzyme was stored as aliquots at −80° C. in 20 mM Tris-HCl, pH 7.5 and 100 mM NaCl.
The final assay conditions were 50 mM HEPES, pH 7.5, 5% DMSO (when screening compounds), 200 μM ATP, 5 mM MgCl2, 1 mM DTT, 50 μM sodium vanidate, 1 nM activated enzyme, and 200 μM peptide. IC50's of compounds were measured under subsaturating ATP (200 μM) and varing concentrations of activated Tie2 and peptide substrate (RFWKYEFWR-OH; MW 1873 Da, TFA salt). Panvera Anti-phosphotyrosine antibody (Cat#P2840) and PTK Green Tracer (Cat#P2842) were used to detect the phosphorylated peptide. Polarization was measured on a TECAN Polarion in 138-second cycles for 30 minutes at room temperature. IC50's were then determined from the % polarization using normal calculation methods.
Background: Fluorescence polarisation rises when a labelled molecule tumbles more slowly, as on binding a larger partner.

As for `CN(c1ccc2c(c1)nc(Nc1ccc(N3CCOCC3)cc1)n2C)c1ccnc(Nc2ccc(CS(C)(=O)=O)cc2)n1`, at GST-VEGFR2, the VEGF-E entry is “+++ (+++ = pIC50 of >7.0)”. The TIE2-FP entry on Recombinant GST-Tie2 is “+ (+ = pIC50 of 5.0-6.0)”.

The record behind these values is US7338959B2, “Diamino-pyrimidines and their use as angiogenesis inhibitors” (SmithKline Beecham Corporation, priority 2002, dated 2008).
